# Measured values taken from patent publication US20230174523A1, “BENZENESULFONAMIDE DERIVATIVES AS TRAP1 MODULATORS AND USES THEREOF” (Amathus Therapeutics, Inc., priority 2020, published 2023).
# The chains behind the UniProt entries cited, without tags or fusion partners. Residues count along the entry.
# UniProt Q12931, 60-704 limits assumed: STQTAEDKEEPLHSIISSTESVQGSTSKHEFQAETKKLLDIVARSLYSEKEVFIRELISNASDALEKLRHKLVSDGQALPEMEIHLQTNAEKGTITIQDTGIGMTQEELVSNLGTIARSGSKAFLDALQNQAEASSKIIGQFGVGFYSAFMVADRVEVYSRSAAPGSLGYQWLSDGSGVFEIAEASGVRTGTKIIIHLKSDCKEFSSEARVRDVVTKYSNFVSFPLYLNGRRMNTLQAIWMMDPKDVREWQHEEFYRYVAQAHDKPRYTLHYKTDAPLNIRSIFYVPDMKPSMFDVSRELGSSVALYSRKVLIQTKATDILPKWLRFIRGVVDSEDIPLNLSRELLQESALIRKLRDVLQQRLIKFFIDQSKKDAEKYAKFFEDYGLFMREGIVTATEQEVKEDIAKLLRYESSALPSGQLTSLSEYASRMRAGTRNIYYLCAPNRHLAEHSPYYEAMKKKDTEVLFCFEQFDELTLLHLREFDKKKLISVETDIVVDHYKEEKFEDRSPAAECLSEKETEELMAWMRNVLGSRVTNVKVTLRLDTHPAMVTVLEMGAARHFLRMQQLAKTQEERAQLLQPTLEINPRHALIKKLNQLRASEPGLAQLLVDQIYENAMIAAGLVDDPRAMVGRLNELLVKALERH
# pEC50: −log10 of the molar value.
# Target: TRAP1 enzyme (Homo sapiens, UniProt Q12931)
# Assay: Malachite green phosphate assay of TRAP1 ATPase activity
# Description: The Potency of test compounds to modulate the ATPase activity of TRAP1 enzyme was evaluated using malachite green phosphatase assay. The assay is based on quantification of the green complex formed between Malachite Green, molybdate and inorganic phosphate generated in the phosphatase reaction. Assays were performed using a Malachite Green assay kit. All the assays were carried out in a 96-well transparent plate. The buffer used was 50 mM HEPES (pH 7.5), 20 mM KCl, 4 mM MgCl2 and 0.05% BSA. 150 nM Trap1 enzyme was incubated with various concentrations of the test compound (0.78 μM-100 μM) at 37° C. for 30 mins. 20 μM ATP was added to each well (except blank wells) to start the reaction and the plate was then incubated at 37° C. for 180 mins. 10 μl of the reaction volume of each sample was then transferred to a white 384-well proxiplate in quadruplets. 2.5 μl of Malachite Green reagent was added to all the wells and the plate was equilibrated for 15 mins. The reaction was stopped by adding 12% H2SO4 and the plate was read for fluorescence at 620 nm (λex=573 nm). The amount of phosphate released was estimated from a phosphate standard curve generated at the same experimental conditions. […]
compound,measurement,setting,value
COc1ccc(NC(=O)c2ccccc2Cl)cc1S(=O)(=O)Nc1ccc(Br)cc1,Malachite Green Fluor DRC: Mean Emax,"maximal percent activation of TRAP1 ATPase, mean","D (“D” refers to 123-159%, inclusive)"
same,pEC50,"read-out: Malachite Green Fluor DRC: GeoMean EC50, TRAP1 ATPase activation, 150 nM Trap1, 20 μM ATP, geometric mean",4.00 to 4.70
